According to PubChem BioAssay AID1510 (The Scripps Research Institute Molecular Screening Center, 2009):
The list shows a part of the results, in another mix than the full data. Some of these compounds have results that are not shown, active ones among them. Active and inactive are the calls of the source. No stated cut-off is given here; in the data, active means inhibition above about 29%; inactive means the rest.

Chains of the proteins cited; added tags and fusions are not shown.
UniProt O95977, whole entry: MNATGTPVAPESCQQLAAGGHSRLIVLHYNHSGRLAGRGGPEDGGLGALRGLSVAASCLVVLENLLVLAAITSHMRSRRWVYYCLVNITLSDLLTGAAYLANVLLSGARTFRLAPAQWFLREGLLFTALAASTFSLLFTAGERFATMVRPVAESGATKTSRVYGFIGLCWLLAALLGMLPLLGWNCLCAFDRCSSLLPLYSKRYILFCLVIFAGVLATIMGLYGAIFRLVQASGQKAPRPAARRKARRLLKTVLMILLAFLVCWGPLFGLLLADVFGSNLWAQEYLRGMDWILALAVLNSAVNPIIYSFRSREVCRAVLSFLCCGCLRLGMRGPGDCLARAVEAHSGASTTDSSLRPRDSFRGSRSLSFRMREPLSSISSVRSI

The compounds below were run against Sphingosine 1-phosphate receptor 4 (Homo sapiens) (UniProt O95977) (assay: blockers of human S1P4 receptor – cell-based, primary screen (AID 1510;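 further: 0% = wells stimulated with agonist and 100% = vehicle wells without agonist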)). Details: S1P4-expressing cells, antagonist mode, reporter read-out; at 4.98 µM; active compounds read high.
For `COc1ccc(Br)c(C(=O)NCC2(N3CCCCC3)CCCCC2)c1`, the inhibition was inactive: 16.3%. With `CN(C)c1cccc(C(=O)NCC2(N(C)C)CCCCC2)c1` the inhibition was inactive: -7.64%. In the case of `O=C(OC1CN2CCC1CC2)C(CO)(c1ccccc1)c1ccccc1` (stereo unspecified), the inhibition is reported as inactive: -9.32%. For `COc1cccc(C(=O)NCC2(N3CCCCC3)CCCCC2)c1`, the inhibition was inactive: 0.34%. For `C=CCN1CCN(CCOC(=O)C(O)(c2ccccc2)c2ccccc2)CC1`, the inhibition was inactive: -0.88%. `CCN1CCCC(OC(=O)C2(O)c3ccccc3C=Cc3ccccc32)C1` (stereo unspecified) was tested, and the inhibition was inactive: -14.8%. For `CN(C)C1CCCC1OC(=O)C(O)(c1ccccc1)c1ccccc1` (stereo unspecified), the inhibition was inactive: -17.4%. In the case of `Cc1ccccc1C(=O)NCC1(N2CCCCC2)CCCCC1`, the inhibition is reported as inactive: -18.3%. For `CCN(CC)CC(C)C(C)OC(=O)C(O)(c1ccccc1)c1ccccc1` (stereo unspecified), the inhibition was inactive: -4.56%. `CC(C)N1C(=O)CC2(CCN(CCOC(=O)C(O)(c3ccccc3)c3ccccc3)CC2)C1=O` was tested, and the inhibition was inactive: -17.1%. In the case of `O=C(NCC1(N2CCCCC2)CCCCC1)c1cc([N+](=O)[O-])ccc1Cl`, the inhibition is reported as inactive: 22.9%.
